# Measurements from patent US5571789A (Haemopep Pharma GmbH, priority 1992, dated 1996).
# What was measured:
# heart frequency = test: Heart frequency (EKG) in rats under infusion
# Source text: Employing a test animal body plethysmograph allowed for continuous measurement of the respiration volume (VT), respiration frequency (f), respiration minute volume (MV), resistance of the lung (RL), dynamic compliance (Cdyn), respiration flow (F) and transpulmonary pressure (PTP) of a narcotized, intubated and spontaneously breathing rat. Circulation monitoring was accomplished by EKG recording with evaluation of the heart frequency (HR).
# By means of an injectomar device the test animals were infused 0.5 ml of solution continuously over a total of 10 minutes.
# [1] = Source text: The anamnesis gave no evidence for an exacerbation of the disease in the last 8 weeks. No nicotine abuse was known from any of the patients. Additional inclusion criteria were defined by an expiratory one-second-capacity (FEV1.0) of 40 to 70% of the maximum vital capacity (VCmax) before administration of a broncho-spasmolytic agent, an effect of a β2 -sympathomimetic on FEV1.0 of ≥15%, no alteration of the maintenance antiobstructive treatment and no administration of oral corticoids in the last 4 weeks before the beginning of the study. Within 8 hours before the beginning of the examinations no inhalatory application of a β2 -sympathomimetic must have occurred anymore.
# [2] = tested on: blood pressure and heart frequency
# [3] = intravenous application, similar dosage of urodilatin and ANP; cited from earlier work
substance,measurement,setting,value
urodilatin,Heart frequency (significant increase / differences between groups),"heart frequency; administered doses of groups B-D, before infusion, after 5 minutes, end of ACh provocation",could not be detected
same,Heart frequency,"heart frequency; preliminary experiments, 400 ng/kg/min infused in 1 ml",no changes in heart frequency
same,Diuretic effect observed,[1]; 20 ng/kg/min,2 patients
same,Headaches,[1]; 20 ng/kg/min,One
same,No side effects reported at all,[1]; 20 ng/kg/min,3 patients
same,Diuretic effect observed,[1]; 40 ng/kg/min,3 patients
same,No side effects reported at all,[1]; 40 ng/kg/min,2 patients
same,Transitory bradycardia,[1]; 40 ng/kg/min,2 patients
same,Diuretic effect observed,[1]; 60 ng/kg/min,3 patients
same,No side effects reported at all,[1]; 60 ng/kg/min,3 patients
same,Transitory bradycardia,[1]; 60 ng/kg/min,1 patient
same,Correlation of side effects with the amount of the infused dose,"[1]; 20, 40, 60 ng/kg/min",did not show any correlation
same,No side effects reported at all,[1]; all dosage groups,8 of 18
same,Transitory bradycardia,[1]; all dosage groups,3 of 18
same,Systolic blood pressure versus initial values (pre),"[2]; 40 ng/kg/min, 20 and 30 minutes after completion of the infusion",significant drop
same,Persistence of heart frequency increase,[2]; 60 ng/kg/min only,endured until 30 minutes after completion of the infusion
same,Systolic and diastolic blood pressure values during the infusion,"[2]; 20, 40 and 60 ng/kg/min (any dosage group)",no significant change
same,Heart frequency versus initial values,"[2]; after 40 minutes of infusion, all three dosage groups (20, 40, 60 ng/kg/min)",significant increase
same,Hypotensive effect,[3],without the hypotensive effect

# Where two headings read alike, the source gives them in different places.
